Key:
[1] = Size-exclusion chromatography (Hummel and Dreyer) binding of warfarin to albumin preparations; conditions: different concentrations of warfarin, 50 μM protein, 308 nm, pH 7.4, FIG. 3
Source text: (§1) A direct method for determining the binding properties of substances to albumin is the size-exclusion chromatography (SEC) according to Hummel and Dreyer (Biochim Biophys Acta 1962; 63: 530-532).
(§2) Thus, an SEC column is equilibrated with a buffer solution containing the binding ligand (e.g., phenylbutazone or warfarin). The absorption in the ultraviolet region is continuously monitored. The protein is applied to the column and eluted in the equilibration buffer. Bound ligand becomes eluted together with the albumin, while the non-bound ligand, which is smaller in most cases, becomes eluted correspondingly later. The absorption of the bound ligand mostly interferes with the absorption of the albumin and possible accompanying substances, such as stabilizers. The later eluting “negative” or so-called “vacancy” peak is caused by the depletion of the ligand in the subsequent buffer, which occupies the larger a surface area, the more binding to the previously eluted albumin occurred. […]
(§3) For these examinations, a Biosep-SEC-s 4000 column, 300×4.6 mm micron (Phenomenenx) on a Shimadzu HPLC installation was used. […] Phenylbutazone was monitored at 263 nm, and warfarin at 308 nm. The regions of linear absorption had been determined beforehand. […]

[2] = Size-exclusion chromatography (Hummel and Dreyer) binding of phenylbutazone to albumin preparations; conditions: three concentrations of phenylbutazone, 50 μM protein, 263 nm, pH 7.4, FIG. 2
Source text: as §1, §2, §3

## novel albumin: SD virus-inactivated albumin, 20% solution, free of indole and C6-C10 fatty acid stabilizers
[1]
  vacancy peak height and area (warfarin bound to albumin) versus commercially available albumins: similarly holds
[2]
  vacancy peak height and area (ultraviolet absorption of phenylbutazone bound to albumin) versus commercially available albumins: significantly larger
